Measured values as given in PubChem BioAssay AID588489 (Sanford-Burnham Center for Chemical Genomics, 2011).
The entries are a selection whose mix differs from that of the whole data set. Calls of active or inactive are those of the source. No stated cut-off is given here; in the data, active means inhibition above about 35% (passing the limit was not always enough); inactive means the rest.

The chains behind the UniProt entries cited, without tags or fusion partners.
UniProt P11940, whole entry: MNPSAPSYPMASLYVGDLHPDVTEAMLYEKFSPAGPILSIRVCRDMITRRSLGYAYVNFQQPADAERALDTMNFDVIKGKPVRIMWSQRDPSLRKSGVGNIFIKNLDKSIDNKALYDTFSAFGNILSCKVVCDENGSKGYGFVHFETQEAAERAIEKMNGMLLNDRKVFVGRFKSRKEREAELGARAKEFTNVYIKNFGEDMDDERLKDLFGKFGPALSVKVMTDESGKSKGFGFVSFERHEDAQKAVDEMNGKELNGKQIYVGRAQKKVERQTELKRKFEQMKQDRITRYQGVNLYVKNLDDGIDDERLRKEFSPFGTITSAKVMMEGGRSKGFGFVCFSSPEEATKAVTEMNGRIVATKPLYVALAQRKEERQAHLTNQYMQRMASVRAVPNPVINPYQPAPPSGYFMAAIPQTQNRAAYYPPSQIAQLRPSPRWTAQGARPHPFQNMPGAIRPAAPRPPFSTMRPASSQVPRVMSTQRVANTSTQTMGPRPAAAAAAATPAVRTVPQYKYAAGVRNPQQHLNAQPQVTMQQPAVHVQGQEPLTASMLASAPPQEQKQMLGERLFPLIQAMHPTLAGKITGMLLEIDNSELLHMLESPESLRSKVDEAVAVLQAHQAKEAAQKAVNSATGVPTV

molecular target: Polyadenylate-binding protein 1 (Homo sapiens) (UniProt P11940); experiment: PAM2 peptide displacement from PABP1 MLLE – biochemical, fluorescence polarization, FITC-PAM2, GST-MLLE, primary screen (AID 588489); conditions: at 20 µM, active compounds read high;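 further: plate controls were DMSO wells with GST-MLLE for no effect and wells lacking GST-MLLE protein for full effect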

Row | SMILES | inhibition
1 | O=C(NCC1(N2CCCCC2)CCCCC1)c1cccc([N+](=O)[O-])c1 | inactive: -14.3%
2 | CSc1ccc(C(=O)NCC2(N3CCOCC3)CCCCC2)cc1 | inactive: 12.6%
3 | CCN1CCC(Nc2ccc(Cl)cc2)CC1 | inactive: -16.4%
4 | O=c1[nH]c2ccccc2n1C1CCN(C(c2ccccc2OC(F)(F)F)c2nnnn2C2CCCC2)CC1 (configuration not stated) | inactive: 5.4%
5 | N#CC1(Nc2ccccc2)CCN(CCc2ccccc2)CC1 | inactive: 0.48%
6 | CC(C)(C)n1nnnc1C(c1ccccc1OC(F)(F)F)N1CCC(n2c(=O)[nH]c3ccccc32)CC1 (configuration not stated) | inactive: 9.23%
7 | O=C(NCC1(N2CCCCC2)CCCCC1)c1ccc(OC(F)F)cc1 | inactive: -14.1%
8 | CC(C)c1ccc(C(=O)NCC2(N3CCOCC3)CCCCC2)cc1 | inactive: 0.19%
9 | COc1ccc(NC2CCN(C(=O)OC(C)(C)C)CC2)cc1 | inactive: 6.75%
10 | CN1CCN(CCOC(=O)C(O)(c2ccccc2)c2ccccc2)CC1 | inactive: 7.48%
11 | CCCCn1nnnc1C(c1cccc2ccccc12)N1CCC(n2c(=O)[nH]c3ccccc32)CC1 (configuration not stated) | inactive: -4.27%
12 | O=C(NCC1(N2CCOCC2)CCCCC1)c1cc(=O)[nH]c2ccccc12 | inactive: -2.43%
13 | COc1cc(C(=O)NCC2(N3CCCCC3)CCCCC2)ccc1OC(F)F | inactive: -85.5%
14 | O=C(NCC1(N2CCCCC2)CCCCC1)c1cccc(C(F)(F)F)c1 | inactive: -3.48%
15 | CCCCn1nnnc1C(c1ccnc2ccccc12)N1CCC(n2c(=O)[nH]c3ccccc32)CC1 (configuration not stated) | inactive: 1.5%
16 | COc1cc(OC)c(C(=O)NCC2(N(C)C)CCCCC2)cc1OC | inactive: -6.99%
17 | CCC(c1nnnn1C(C)(C)C)N1CCC(n2c(=O)[nH]c3ccccc32)CC1 (configuration not stated) | inactive: 11.2%
18 | O=C(NCC1(N2CCOCC2)CCCCC1)c1cc(F)c(F)cc1Cl | inactive: 5.35%
19 | COc1ccc(CN(CCCl)CCCl)cc1Cl | inactive: 4.04%
20 | CN(C)c1cccc(C(=O)NCC2(N3CCCCC3)CCCCC2)c1 | inactive: -1.08%
21 | CCCCn1nnnc1C(c1ccccc1OC(F)(F)F)N1CCC(n2c(=O)[nH]c3ccccc32)CC1 (configuration not stated) | inactive: 15.5%
22 | CC(C)c1ccc(NC2CCN(C(=O)OC(C)(C)C)CC2)cc1 | inactive: 0%

Row | SMILES | inhibition
23 | Cc1ccc(C(=O)NCC2(N(C)C)CCCCC2)o1 | inactive: 5.79%
24 | CCCOc1ccc(C(=O)NCC2(N(C)C)CCCCC2)cc1OC | inactive: 13.8%
25 | COc1ccc(C(c2nnnn2C2CCCC2)N2CCC(n3c(=O)[nH]c4ccccc43)CC2)cc1 (configuration not stated) | inactive: 5.88%
26 | CN1CCC(Nc2cccc(F)c2)CC1 | inactive: 11.2%
27 | O=C(NCC1(N2CCCCC2)CCCCC1)c1cncc(Br)c1 | inactive: 6.69%
28 | CSc1ccccc1C(=O)NCC1(N2CCCCC2)CCCCC1 | inactive: -15.1%
29 | Cc1cccc(NC2(C#N)CCN(Cc3ccccc3)CC2)c1 | inactive: 17.1%
30 | O=C(NCC1(N2CCCCC2)CCCCC1)c1ccc(=O)[nH]c1 | inactive: -6.25%
31 | O=C(NCC1(N2CCCCC2)CCCCC1)c1cccs1 | inactive: -34.7%
32 | CCCCn1nnnc1C(CC)N1CCC(n2c(=O)[nH]c3ccccc32)CC1 (configuration not stated) | inactive: -5.13%
33 | CCCCn1nnnc1C(c1cccs1)N1CCC(n2c(=O)[nH]c3ccccc32)CC1 (configuration not stated) | inactive: -3.59%
34 | COc1ccc(C(=O)NCC2(N3CCCCC3)CCCCC2)cc1 | inactive: -6.19%
35 | CC(C)(C)OC(=O)N1CCC(N(C(=O)c2ccccc2)c2ccc(F)cc2)CC1 | inactive: -4.81%
36 | COc1ccc(C(=O)NCC2(N3CCCCC3)CCCCC2)c(OC)c1OC | inactive: -4.68%
37 | CCC(c1nnnn1C1CCCC1)N1CCC(n2c(=O)[nH]c3ccccc32)CC1 (configuration not stated) | inactive: -10.1%
38 | CCOC(=O)N1CCC(Nc2ccc(OC)cc2)CC1 | inactive: 4.46%
39 | CCCCn1nnnc1C(c1ccc(OC)cc1)N1CCC(n2c(=O)[nH]c3ccccc32)CC1 (configuration not stated) | inactive: -11.8%
40 | O=C(NCC1(N2CCCCC2)CCCCC1)c1ccc(Cl)s1 | inactive: 1.55%
41 | N#CC1(Nc2ccccc2)CCN(Cc2ccccc2)CC1 | inactive: 17.3%
42 | O=c1[nH]c2ccccc2n1C1CCN(C(c2cc3ccccc3o2)c2nnnn2C2CCCCC2)CC1 (configuration not stated) | inactive: -5.95%
43 | O=C(OC1CN2CCC1CC2)C1c2ccccc2Oc2ccccc21 (configuration not stated) | inactive: 30.2%
44 | COc1ccc(Cl)cc1C(=O)NCC1(N2CCOCC2)CCCCC1 | inactive: 8.03%

Row | SMILES | inhibition
45 | O=C(NCC1(N2CCOCC2)CCCCC1)c1cc2ccccc2o1 | inactive: -16%
46 | O=C(NCC1(N2CCCCC2)CCCCC1)c1ccc(Cl)nc1 | inactive: -31.3%
47 | O=c1[nH]c2ccccc2n1C1CCN(C(c2ccccc2OC(F)(F)F)c2nnnn2C2CCCCC2)CC1 (configuration not stated) | inactive: -6.9%
48 | Cc1cc(C)cc(N(C(=O)c2ccccc2)C2CCN(C(=O)OC(C)(C)C)CC2)c1 | inactive: 11.4%
49 | CCCCOc1ccc(C(=O)NCC2(N3CCOCC3)CCCCC2)cc1 | inactive: -5.19%
50 | CCCCn1nnnc1C(c1cc2ccccc2o1)N1CCC(n2c(=O)[nH]c3ccccc32)CC1 (configuration not stated) | inactive: -4.12%
51 | O=P1(N(CCCl)CCCl)SCCCS1 | inactive: 6.9%
52 | O=C(NCC1(N2CCCCC2)CCCCC1)c1ccc(F)cc1 | inactive: 8.74%
53 | CCOC(=O)N1CCC(Nc2ccc(F)cc2)CC1 | inactive: 9.06%
54 | COc1ccc(NC2CCN(CCc3ccccc3)CC2)c(OC)c1 | inactive: 17%
55 | CCOc1ccc(C)cc1CN(CCCl)CCCl | inactive: 2.67%
56 | CC(C)(C)n1nnnc1C(c1ccccc1)N1CCC(n2c(=O)[nH]c3ccccc32)CC1 (configuration not stated) | inactive: 11.2%
57 | O=C1CCN(Cc2ccccc2)CC1 | inactive: -3.16%
58 | O=c1[nH]c2ccccc2n1C1CCN(C(c2cccc3ccccc23)c2nnnn2C2CCCC2)CC1 (configuration not stated) | inactive: 1.34%
59 | CCOC(=O)N1CCC(Nc2cccc(C)c2)CC1 | inactive: -7.18%
60 | COc1cc(C(=O)NCC2(N(C)C)CCCCC2)ccc1OC(F)F | inactive: -5.68%
61 | O=c1[nH]c2ccccc2n1C1CCN(C(c2ccccc2)c2nnnn2C2CCCCC2)CC1 (configuration not stated) | inactive: 3.18%
62 | Cc1ccc(NC2(C#N)CCN(Cc3ccccc3)CC2)cc1 | inactive: -6.48%
63 | Cc1ccc(C(=O)NCC2(N3CCCCC3)CCCCC2)o1 | inactive: -3.14%
64 | Fc1ccccc1NC1CCN(Cc2ccccc2)CC1 | inactive: -8.18%
65 | COc1cc(OC)cc(C(=O)NCC2(N3CCCCC3)CCCCC2)c1 | inactive: -1.28%
66 | O=c1[nH]c2ccccc2n1C1CCN(C(c2ccnc3ccccc23)c2nnnn2C2CCCCC2)CC1 (configuration not stated) | inactive: 6.15%

Row | SMILES | inhibition
67 | COc1cccc(C(c2nnnn2C2CCCCC2)N2CCC(n3c(=O)[nH]c4ccccc43)CC2)c1OC (configuration not stated) | inactive: -11.4%
68 | CC(=O)N(c1ccccc1)C1CCNCC1 | inactive: -6.34%
69 | CCC(c1nnnn1C1CCCCC1)N1CCC(n2c(=O)[nH]c3ccccc32)CC1 (configuration not stated) | inactive: 5%
70 | O=C(NCC1(N2CCCCC2)CCCCC1)c1ccco1 | inactive: 1.56%
71 | CN(C)c1ccc(C(=O)NCC2(N3CCCCC3)CCCCC2)cc1 | inactive: -2.06%
72 | Cn1c(=O)[nH]cc(N(CCCl)CCCl)c1=O | inactive: 0.83%
73 | Cc1ccccc1NC1(C#N)CCN(Cc2ccccc2)CC1 | inactive: 1.13%
74 | CCN1CCC(Nc2cccc(F)c2)CC1 | inactive: 6.85%
75 | COc1ccc(C(c2nnnn2C2CCCCC2)N2CCC(n3c(=O)[nH]c4ccccc43)CC2)cc1 (configuration not stated) | inactive: -2.97%
76 | CC(C)(C)n1nnnc1C(c1ccnc2ccccc12)N1CCC(n2c(=O)[nH]c3ccccc32)CC1 (configuration not stated) | inactive: 6.02%
77 | O=c1[nH]c2ccccc2n1C1CCN(C(c2cc3ccccc3o2)c2nnnn2C2CCCC2)CC1 (configuration not stated) | inactive: 12.9%
78 | CCCOc1ccc(C(=O)NCC2(N(C)C)CCCCC2)cc1 | inactive: -3.73%
79 | CC(C)(C)OC(=O)N1CCC(Nc2ccccc2)CC1 | inactive: 3.48%
80 | O=C(O)C1(Nc2ccccc2)CCN(Cc2ccccc2)CC1 | inactive: -7.6%
81 | CCOc1ncccc1C(=O)NCC1(N2CCOCC2)CCCCC1 | inactive: -1.51%
82 | CN1CCC(Nc2ccc(F)c(Cl)c2)CC1 | inactive: 1.35%
83 | CN1CCC(Nc2ccc(Cl)cc2)CC1 | inactive: 0.27%
84 | CCC(CO)(C(=O)OC1CN2CCC1CC2)c1ccccc1 (configuration not stated) | inactive: -2.74%
85 | COc1cccc(C(=O)N(c2cc(C)cc(C)c2)C2CCN(C(=O)OC(C)(C)C)CC2)c1 | inactive: -0.48%
86 | COc1cc(OC)cc(C(=O)NCC2(N3CCOCC3)CCCCC2)c1 | inactive: -10.9%
87 | COc1cccc(C(c2nnnn2C2CCCC2)N2CCC(n3c(=O)[nH]c4ccccc43)CC2)c1OC (configuration not stated) | inactive: 16.8%
88 | COc1ccc(C(=O)NCC2(N3CCOCC3)CCCCC2)cc1OC | inactive: 3.05%

Row | SMILES | inhibition
89 | O=c1[nH]c2ccccc2n1C1CCN(C(c2ccnc3ccccc23)c2nnnn2C2CCCC2)CC1 (configuration not stated) | inactive: 4.35%
90 | O=c1[nH]c2ccccc2n1C1CCN(C(c2cccs2)c2nnnn2C2CCCCC2)CC1 (configuration not stated) | inactive: 5.54%
91 | O=C(NCC1(N2CCOCC2)CCCCC1)c1cc(Br)ccc1Cl | inactive: 0.09%
92 | CCCCn1nnnc1C(c1ccccc1)N1CCC(n2c(=O)[nH]c3ccccc32)CC1 (configuration not stated) | inactive: 0.71%
93 | COc1cc(C(=O)NCC2(N3CCOCC3)CCCCC2)cc(OC)c1C | inactive: 12%
94 | CCCCn1nnnc1C(c1cccc(OC)c1OC)N1CCC(n2c(=O)[nH]c3ccccc32)CC1 (configuration not stated) | inactive: -15.1%
95 | O=C(OC1CN2CCC1CC2)C1c2ccccc2C=Cc2ccccc21 (configuration not stated) | inactive: -5.97%
96 | O=c1[nH]c2ccccc2n1C1CCN(C(c2cccs2)c2nnnn2C2CCCC2)CC1 (configuration not stated) | inactive: 6.45%
97 | N/C(=N\O)c1c(N)no[n+]1[O-] | inactive: 11.2%
98 | CCOC(=O)N1CCC(Nc2ccc(C)cc2)CC1 | inactive: -1.86%
99 | COc1cccc(C(c2nnnn2C(C)(C)C)N2CCC(n3c(=O)[nH]c4ccccc43)CC2)c1OC (configuration not stated) | inactive: -11.6%
100 | CC(C)(C)OC(=O)N1CCC(N(C(=O)c2ccccc2)c2ccc(Cl)cc2)CC1 | inactive: 1.97%
101 | N#Cc1ccc(C(=O)NCC2(N3CCCCC3)CCCCC2)cc1 | inactive: 14.4%
102 | CC(C)(C)n1nnnc1C(c1cccc2ccccc12)N1CCC(n2c(=O)[nH]c3ccccc32)CC1 (configuration not stated) | inactive: 8.07%
103 | c1ccc(CN2CCC(Nc3ccccc3)CC2)cc1 | inactive: 1.19%
104 | Cc1cc(N(CCCl)CCCl)ccc1C=O | inactive: 2.37%
105 | O=c1[nH]c2ccccc2n1C1CCN(C(c2ccccc2)c2nnnn2C2CCCC2)CC1 (configuration not stated) | inactive: 2.48%
106 | CCCN1CCC(Nc2cc(OC)cc(OC)c2)CC1 | active: 46.2%
107 | CN(C)C1(CNC(=O)c2cccc(C#N)c2)CCCCC1 | inactive: 4.56%
